Test results reported in ChEMBL document CHEMBL1146020, “Phosphonothioate and fluoromethylene phosphonate analogues of cyclic phosphatidic acid: Novel antagonists of lysophosphatidic acid receptors” (2006).

By UniProt entry, the sequences of proteins in these tests, tags left out. Where a name states a change or a piece, a line headed by the entry shows the natural chain unless it says otherwise.
UniProt Q92633: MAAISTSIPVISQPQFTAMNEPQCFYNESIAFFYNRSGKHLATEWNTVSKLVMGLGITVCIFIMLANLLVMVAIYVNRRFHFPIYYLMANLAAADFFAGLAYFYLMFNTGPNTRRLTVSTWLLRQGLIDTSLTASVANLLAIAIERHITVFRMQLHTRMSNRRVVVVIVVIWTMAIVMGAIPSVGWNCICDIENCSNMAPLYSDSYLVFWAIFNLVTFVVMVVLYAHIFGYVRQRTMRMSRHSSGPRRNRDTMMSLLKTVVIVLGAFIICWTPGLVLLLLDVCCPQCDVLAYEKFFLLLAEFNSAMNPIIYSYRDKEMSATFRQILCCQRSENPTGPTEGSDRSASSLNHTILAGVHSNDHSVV
UniProt Q9HBW0, whole entry, looked up: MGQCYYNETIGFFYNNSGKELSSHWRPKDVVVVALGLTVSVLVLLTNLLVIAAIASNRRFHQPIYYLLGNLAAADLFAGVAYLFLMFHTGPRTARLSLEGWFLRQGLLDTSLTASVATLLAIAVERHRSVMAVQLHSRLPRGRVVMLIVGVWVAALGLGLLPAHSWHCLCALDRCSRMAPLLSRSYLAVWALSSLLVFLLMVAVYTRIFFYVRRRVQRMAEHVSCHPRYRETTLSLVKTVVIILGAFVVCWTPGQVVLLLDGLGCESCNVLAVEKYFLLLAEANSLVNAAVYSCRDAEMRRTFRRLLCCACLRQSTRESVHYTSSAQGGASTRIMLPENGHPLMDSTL
UniProt Q9UBY5: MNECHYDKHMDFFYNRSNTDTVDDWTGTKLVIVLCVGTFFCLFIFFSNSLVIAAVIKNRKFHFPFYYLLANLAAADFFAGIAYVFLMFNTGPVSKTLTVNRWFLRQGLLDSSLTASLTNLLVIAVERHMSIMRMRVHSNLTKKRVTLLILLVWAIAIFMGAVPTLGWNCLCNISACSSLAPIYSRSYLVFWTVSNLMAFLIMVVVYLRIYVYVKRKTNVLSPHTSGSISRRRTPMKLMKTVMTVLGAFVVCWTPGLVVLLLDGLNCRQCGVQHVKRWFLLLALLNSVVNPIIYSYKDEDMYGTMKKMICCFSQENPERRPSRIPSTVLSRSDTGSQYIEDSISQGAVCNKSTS

Experiments:
[1] = biological target: T1, Lysophosphatidic acid receptor 1 (Homo sapiens, UniProt Q92633); assay: Activity at human LPA1 receptor in RH7777 cells at 30 uM by calcium mobilization assay
[2] = biological target: T2, Lysophosphatidic acid receptor 2 (Homo sapiens, UniProt Q9HBW0); assay: Activity at human LPA2 receptor in RH7777 cells at 30 uM by calcium mobilization assay
[3] = Dissociation constant, pKa of the compound
[4] = biological target: T3, Lysophosphatidic acid receptor 3 (Homo sapiens, UniProt Q9UBY5); assay: Activity at human LPA3 receptor in RH7777 cells at 30 uM by calcium mobilization assay
[5] = biological target: T3, Lysophosphatidic acid receptor 3; assay: Activity at human LPA3 receptor expressed in RH7777 cells by calcium mobilization assay
[6] = biological target: T1, Lysophosphatidic acid receptor 1; assay: Activity at human LPA1 receptor expressed in RH7777 cells by calcium mobilization assay
[7] = biological target: T2, Lysophosphatidic acid receptor 2; assay: Activity at human LPA2 receptor expressed in RH7777 cells by calcium mobilization assay

CCCCCCCCCCCCCCCCCC(=O)OCC1CCP(=O)(O)O1 (configuration not stated)
EC50 [1]: Not Active
IC50 [1]: Not Active
EC50 [2]: Not Active
IC50 [2]: Not Active
pKa [3]: 6.58
EC50 [4]: Not Active
IC50 [4]: Not Active

CCCCCCCCCCCCCCCCCC(=O)OCC1CCP(O)(=S)O1 (configuration not stated)
EC50 [1]: Not Active
EC50 [2]: Not Active
IC50 [2]: Not Active
IC50 [5]: 1270 nM
Ki [5]: 636 nM
pKa [3]: 6.76
IC50 [6]: 941 nM
Ki [6]: 403 nM
EC50 [4]: Not Active

CCCCCCCCCCCCCCCCCC(=O)OC[C@@H]1CC(F)P(=O)(O)O1 (some centres not stated)
EC50 [1]: Not Active
EC50 [2]: Not Active
IC50 [2]: Not Active
IC50 [5]: 7720 nM
Ki [5]: 3170 nM
pKa [3]: 5.6
IC50 [6]: 106 nM
Ki [6]: 60.7 nM
EC50 [4]: Not Active

CCCCCCCCCCCCCCCC(=O)OCC1CCP(O)(=S)O1 (configuration not stated)
EC50 [1]: Not Active
EC50 [2]: Not Active
IC50 [2]: Not Active
IC50 [5]: 2340 nM
Ki [5]: 1150 nM
pKa [3]: 6.48
IC50 [6]: 799 nM
Ki [6]: 314 nM
EC50 [4]: Not Active

CCCCCCCCCCCCCCCCCC(=O)OC[C@@H]1CC(F)(F)P(=O)(O)O1
IC50 [2]: Not Active
EC50 [5]: > 7030 nM
pKa [3]: 4.62
EC50 [6]: > 1940 nM
IC50 [6]: Not Active
EC50 [4]: Not Active
EC50 [7]: > 9460 nM
Ki [7]: Not Active
